Assay results: the NIST ThermoML archive (doi:10.1016/j.jct.2017.02.008)
± gives the expanded uncertainty stated by the source.

Assays:
[1] = Molar enthalpy of transition or fusion; settings: Crystal; DSC
[2] = Crystal; DTA

Structure (SMILES): Cc1ccc(N)c([N+](=O)[O-])c1 [4-methyl-2-nitroaniline]
- Molar enthalpy of transition or fusion [1]: 5.05 ± 0.22 kcal/mol
- Normal melting temperature [2]: 115.41 ± 1.1 °C
